Binding of CDR-mutated scFvs to a peptide of the spike HR2 region

Data: MIT Lincoln Laboratory AlphaSeq set, Engelhart et al. 2022, doi:10.1038/s41597-022-01779-4, as distributed in FLAb.

Target peptide (SARS-CoV-2 spike, HR2 region): PDVDLGDISGINAS

The variants keep the light chain, the linker and the frameworks of Ab-91 (scFv order VL, three GGGGS repeats, VH).
VL: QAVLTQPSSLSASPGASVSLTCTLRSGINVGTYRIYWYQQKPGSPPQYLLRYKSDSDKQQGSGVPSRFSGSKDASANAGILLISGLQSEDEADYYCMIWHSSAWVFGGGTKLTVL
VH: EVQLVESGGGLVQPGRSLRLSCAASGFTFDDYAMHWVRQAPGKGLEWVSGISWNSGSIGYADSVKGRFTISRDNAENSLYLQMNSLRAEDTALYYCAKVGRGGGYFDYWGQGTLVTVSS

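The starting antibody came from a phage panning campaign against this peptide. The library (AAYL51) carries one to three amino acid substitutions per variant, with no insertions or deletions. AlphaSeq pools MATa yeast showing the antibodies with MATalpha yeast showing the peptide. The frequency of each diploid, read from paired DNA barcodes, reflects how well the two displayed proteins bind. Read counts were normalised to the haploid input and turned into Kd by a linear fit to BCL2-family pairs of known affinity, for each replicate. There are three technical replicates.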

The parent's heavy chain CDRs are GFTFDDYAMH, GISWNSGSIGYADSVK, VGRGGGYFDY; each variant's own CDRs replace them letter for letter.
Values are log10 of the apparent Kd in nM; lower means stronger binding.
A mean of the replicates is given; it leaves out those without a signal.
A pair that was not seen in any replicate is written "no signal"; this usually means weak binding, but a binder can also be missed.

| CDR-H1 | CDR-H2 | CDR-H3 | log10 Kd (nM), mean | replicates with signal |
|---|---|---|---|---|
| GFTFDDYAMH | GGSWNSGSIGYADSVK | VGREGGDFDY | 5.91 | 1/3 |
| GFTFDDYAMH | GILWNIGSIGYADNVK | VGRGGGYFDY | 4.07 | 2/3 |
| GFTFDDYAMH | GISWNRGSLGYADSVK | VGKGGGYFDY | no signal | 0/3 |
| GFTFDDYAMH | GNSWNSGSVGYGDSVK | VGRGGGYFDY | no signal | 0/3 |
| GFTFDDYAMG | GISWNSGSILYADSVK | VGRGGGWFDY | 5.03 | 1/3 |
| GFTFDDYAMH | GISWNSGSIGFVDSVK | VVRGGGYFDY | 5.63 | 2/3 |
| GFTFSDYAMH | GISWNCGSIGYADSQK | VGRGGGYFDY | no signal | 0/3 |
| GFTFDDYAMH | GISWNLGSIGYADSVC | VGRGWGYFDY | 3.32 | 1/3 |
| GFTFDDYAMH | GISWNSGTIGYIDSVK | VGRGGGYFDR | 5.55 | 3/3 |
| GFTFDDYAMH | GISWNSGSIRYSDQVK | VGRGGGYFDY | 4.31 | 1/3 |
| GFTFDDSAMH | GISWNSGSIEYADSVK | VGRGGGYFGY | 4.81 | 2/3 |
| GFTFVDYAMH | GISWNSGSIGYADLVK | VGGGGGYFDY | no signal | 0/3 |
| GFTFDDNAMH | GICWNSGSIGYADSVY | VGRGGGYFDY | 4.79 | 1/3 |
| GFTFDDYAMH | GISWNSNSIGAADSVK | VGRGGGYFDY | 4.23 | 1/3 |
| GFTFDDYAMH | GISQNSGSIGFADSVK | VGRGGGYFVY | 6.15 | 1/3 |
| GFTFDDYAMH | GISWNSGSIGYADSGK | VGLGGGYFDW | 3.11 | 3/3 |
| GFSFDDYAMH | GISWNSGSIGYADSVW | VGRGQGYFDY | 4.04 | 1/3 |
| GFTFDDYAMH | GISWPSGSISYKDSVK | VGRGGGYFDY | 3.64 | 2/3 |
| GFTFDDYAMH | GISWNSGSIGQADFVK | VGRGWGYFDY | 4.08 | 1/3 |
| GATFDDYAMH | GISWNSGSIGYGDSVK | VGRGGGYKDY | 5.07 | 3/3 |
| GFTFDIYAMH | GISWNSGSPGYADSVK | VWRGGGYFDY | 5.82 | 3/3 |
| GFTFDDYGMH | GISWNQGSIGYADSVK | VGRGGFYFDY | no signal | 0/3 |
| GFTFDDYAMH | GISWNSISIGYARSVK | VGVGGGYFDY | 4.61 | 1/3 |

The remaining entries, values ahead:

| log10 Kd (nM), mean | replicates with signal | CDR-H1 | CDR-H2 | CDR-H3 |
|---|---|---|---|---|
| no signal | 0/3 | GFTFDDYAMH | GISWNSKSIGVADSVK | VGRGKGYFDY |
| no signal | 0/3 | GFTFDDYAWH | GISWNSGSIGYHDSVK | VGRGGGYADY |
| 5.40 | 1/3 | AFTFDDYKMH | GISWVSGSIGYADSVK | VGRGGGYFDY |
| 3.25 | 3/3 | GFTFDDFAMH | GISWNMGSIGYADSFK | VGRGGGYFDY |
| no signal | 0/3 | GFTFDDYARH | GISWNSGSIGYYDSVK | VGRGSGYFDY |
| no signal | 0/3 | GGTFDDYAMH | GILWNSDSIGYADSVK | VGRGGGYFDY |
| no signal | 0/3 | GFCFDDYAMH | GISWNSGSIGYADSLK | VGRGGMYFDY |
| 4.41 | 1/3 | GFTFDDYAMH | GISWNSGSIGYADFWK | VSRGGGYFDY |
| no signal | 0/3 | GFTFDDFAMC | GISWNSGSIGYADSVK | VGRGGGFFDY |
| 3.76 | 1/3 | GFTFDDYALH | GKSWNSGSIGYADSVK | VGRWGGYFDY |
| 4.43 | 1/3 | GFTFSDYAMH | GISWNKGSIGYADSVK | TGRGGGYFDY |
| no signal | 0/3 | GFTFDDYAMH | MISWNSKSIGYADSVK | VGRGGGHFDY |
| no signal | 0/3 | GFNFDDYAKH | GISWNSGSIGYGDSVK | VGRGGGYFDY |
| 4.90 | 1/3 | GFTFDDYAMF | GISWNSGSIGYQLSVK | VGRGGGYFDY |
| no signal | 0/3 | GFNFDDYAMH | GISWYSGSIGYADSVK | VGRGGWYFDY |
| 0.89 | 3/3 | GFTFDSTAMH | GISWNSGSIGYADSVV | VGRGGGYFDY |
| no signal | 0/3 | GFTFMDYAMH | GISWMSGSIGYADSVK | VGRGGRYFDY |
| 4.65 | 2/3 | GFTFDDTAMH | WISWNSPSIGYADSVK | VGRGGGYFDY |
| no signal | 0/3 | GFTFDDYANQ | GISWNSGSIGYADSVK | VGRGGGYFDC |
| no signal | 0/3 | GFTFDDYAMH | GIPWNSGSIGYADSVK | VGRGSGIFDY |
| no signal | 0/3 | GFLFDDYAMH | GISWNSGSIGYEDSVK | VGRGGGYFDM |
| 4.46 | 2/3 | GFTFDDYYMH | GISWNSVSIGYADSVM | VGRGGGYFDY |
| 2.74 | 2/3 | GFTFDDYAMH | GISSNSGSIGYWDSVK | VGRGGGYFEY |
| no signal | 0/3 | GFTFDDTAMH | RISWNSGSIGYADSVK | VGRGGGYFKY |

5 of these entries, quoted again:

CDR-H1	CDR-H2	CDR-H3	log10 Kd (nM), mean	replicates with signal
GFNFDDYAMH	GISWYSGSIGYADSVK	VGRGGWYFDY	no signal	0/3
GFTFDDYAWH	GISWNSGSIGYHDSVK	VGRGGGYADY	no signal	0/3
GFTFDDYAMH	GISQNSGSIGFADSVK	VGRGGGYFVY	6.15	1/3
GFTFDDYAMH	GISWNSNSIGAADSVK	VGRGGGYFDY	4.23	1/3
GFTFDDSAMH	GISWNSGSIEYADSVK	VGRGGGYFGY	4.81	2/3

Parent in this assay: reference entry 1.86, copy in this library 0.88.
Nonspecific signal, from three strains lacking the peptide, appeared in 21% of pairings of library AAYL51, centred on 4.54 (5% of these signals below 3.26); values are not corrected for it.